Source: PubChem
Cneo AK release = causes C. neoformans cell lysis; adenylate kinase release luminescence, 4 h; normalised: neutral wells 0, clomiphene wells 100; lysis activity, % at 15 µM; 0.2% of 360,000 active; AID 651654;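 active means mean lysis activity across replicates of at least 80%, whatever share of replicates individually reach that level; inactive means mean lysis activity below 80%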
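Assay system: C. neoformans cells. Amount: yeast cell density of 5 × 10^6 cells/mL. Technique: AK luminescence. Buffer or medium: YPD. Times: static 4 h at 37 °C with compound, 1 h detection. Dosing: single-point compound dose. Read-out: lysis from increased AK signal.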
ERp5 inh = inhibitors of human ERp5; Q15084; ERp5 insulin aggregation, absorbance 650 nm, 90 min; inhibition, % at 9.99 µM; 0.05% of 350,000 active;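 active means mean replicate inhibition above about 25%, with every replicate also reaching it, limit read from the data, passing the limit was not always enough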
PDI turbidity = blocks human protein disulfide isomerase activity; inhibition, % at 10 µM; P07237; PDI insulin aggregation turbidity, A650, 90 min; AID 588391; 0.052% of 350,000 active;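 active means mean inhibition across replicates of 30% or more, whatever share of single replicates reach that level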
Yeast UUG start-1 = modulators of start codon recognition fidelity in yeast. S. cerevisiae UUG-firefly luciferase reporter, luminescence/redox ratio. activity score, % at 18.7 µM. 0.13% of 350,000 active. AID 602363;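 active = replicate mean at a twofold rise or more, about +100% in these data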;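 also: firefly luciferase made from a UUG start codon reports start codon fidelity; reporter light over untreated wells divided by growth signal over untreated wells; some hits fall short of that in this replicate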
Yeast UUG start-2 = yeast start codon fidelity modulation; shares compounds with Yeast UUG start-1; activation, % at 38 µM; S. cerevisiae UUG-start firefly luciferase, luminescence, 4 h; 100% means double the DMSO signal; 540 tested, under 10 active;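 active means signal increase whose fitted curve reaches an absolute level of 40 at a concentration under 10 µM; inactive means activity opposite to the expected increase, or the rest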
* hit, by the source's call; i = inactive; · = no result. In the library only some 0.34% were active in any assay of this set; here they are far more common.

nr	Compound	ERp5 inh	PDI turbidity	Yeast UUG start-1
1	CC(C)(C)OC(=O)N1CCN(c2ccc(NC(=O)Cn3nnc(-c4ccccc4)n3)cc2)CC1	·	3	-3
2	COc1cccc(OC)c1NC(=O)Cc1nn(C)c(=O)c2ccccc12	·	-3	-10
3	COc1ccccc1NC(=O)Cc1nn(C)c(=O)c2ccccc12	·	0	-19
4	Cc1csc(NC(=O)Cc2ccccc2Cl)n1	3	-10	-11
5	Cc1csc(NC(=O)Cc2nn(C)c(=O)c3ccccc23)n1	·	-1	-18
6	C[C@H](CO)N1C[C@H](C)[C@H](CN(C)Cc2ccc(C(F)(F)F)cc2)OCc2cnnn2CCCC1=O	3	·	·
7	O=C(c1ccccc1)N1C[C@@H]2[C@H](c3ccccc31)[C@@H](CO)N2C(=O)CN1CCOCC1	3	·	-6
8	O=C(C1CCCCC1)N1CC[C@@H]2[C@H](CO)Nc3ccc(Br)cc3[C@@H]21	-4	·	2
9	Cn1nc(CC(=O)Nc2ccc(Oc3ccccc3)cc2)c2ccccc2c1=O	·	·	·
10	COc1cc(NC(=O)Cc2nn(C)c(=O)c3ccccc23)cc(OC)c1	·	3	-9
11	O=C(CNC(=O)c1cc(=O)[nH]c2ccc(S(=O)(=O)N3CCOCC3)cc12)Nc1ccc(F)c(F)c1	4	9	108*

nr	Yeast UUG start-2	Cneo AK release
1	·	-2
2	5	-4
3	-1	-1
4	·	0
5	-7	0
6	·	-17
7	·	-3
8	·	0
9	i	·
10	4	15
11	12	1

One compound at a time, from the list above. Order of screens: ERp5 inh	PDI turbidity	Yeast UUG start-1	Yeast UUG start-2	Cneo AK release
Entry for O=C(c1ccccc1)N1C[C@@H]2[C@H](c3ccccc31)[C@@H](CO)N2C(=O)CN1CCOCC1 : 3	·	-6	·	-3
Entry for CC(C)(C)OC(=O)N1CCN(c2ccc(NC(=O)Cn3nnc(-c4ccccc4)n3)cc2)CC1 : ·	3	-3	·	-2
